# Laboratory results: patent US20110160193A1, “New Benzothiazinone Derivatives and Their Use as Antibacterial Agents” (Leibniz Institute for Natural Product Research and …, priority 2006, published 2011)
# What was measured:
# Assay in all cases: MIC by micro broth dilution method in Mueller-Hinton broth (NCCLS)
# Assay type in all cases: cell-based
# M. fortuitum B = details: Mycolicibacterium fortuitum
# M. vaccae IMET 1010670 = details: Mycolicibacterium vaccae, IMET1010670
# [1] = test system: Mycobacterium smegmatis SG 987; details: Mycolicibacterium smegmatis, SG987
smiles,measurement,setting,value
"CCOC1(OCC)CCN(c2nc(=O)c3cc([N+](=O)[O-])cc([N+](=O)[O-])c3s2)CC1 [Compound 6, 2-(4,4-diethoxypiperidin-1-yl)-6,8-dinitro-1,3-benzothiazin-4-one]",MIC,M. fortuitum B,0.08 µg/mL
same,MIC,M. vaccae IMET 1010670,0.04 µg/mL
same,MIC,[1],> 10 µg/mL
